Laboratory results reported in US8952169B2 (Genentech, Inc., priority 2012, dated 2015).

Protein sequences, listed by entry. Tags and fused reporters are not part of them.
UniProt Q15858, whole entry, looked up: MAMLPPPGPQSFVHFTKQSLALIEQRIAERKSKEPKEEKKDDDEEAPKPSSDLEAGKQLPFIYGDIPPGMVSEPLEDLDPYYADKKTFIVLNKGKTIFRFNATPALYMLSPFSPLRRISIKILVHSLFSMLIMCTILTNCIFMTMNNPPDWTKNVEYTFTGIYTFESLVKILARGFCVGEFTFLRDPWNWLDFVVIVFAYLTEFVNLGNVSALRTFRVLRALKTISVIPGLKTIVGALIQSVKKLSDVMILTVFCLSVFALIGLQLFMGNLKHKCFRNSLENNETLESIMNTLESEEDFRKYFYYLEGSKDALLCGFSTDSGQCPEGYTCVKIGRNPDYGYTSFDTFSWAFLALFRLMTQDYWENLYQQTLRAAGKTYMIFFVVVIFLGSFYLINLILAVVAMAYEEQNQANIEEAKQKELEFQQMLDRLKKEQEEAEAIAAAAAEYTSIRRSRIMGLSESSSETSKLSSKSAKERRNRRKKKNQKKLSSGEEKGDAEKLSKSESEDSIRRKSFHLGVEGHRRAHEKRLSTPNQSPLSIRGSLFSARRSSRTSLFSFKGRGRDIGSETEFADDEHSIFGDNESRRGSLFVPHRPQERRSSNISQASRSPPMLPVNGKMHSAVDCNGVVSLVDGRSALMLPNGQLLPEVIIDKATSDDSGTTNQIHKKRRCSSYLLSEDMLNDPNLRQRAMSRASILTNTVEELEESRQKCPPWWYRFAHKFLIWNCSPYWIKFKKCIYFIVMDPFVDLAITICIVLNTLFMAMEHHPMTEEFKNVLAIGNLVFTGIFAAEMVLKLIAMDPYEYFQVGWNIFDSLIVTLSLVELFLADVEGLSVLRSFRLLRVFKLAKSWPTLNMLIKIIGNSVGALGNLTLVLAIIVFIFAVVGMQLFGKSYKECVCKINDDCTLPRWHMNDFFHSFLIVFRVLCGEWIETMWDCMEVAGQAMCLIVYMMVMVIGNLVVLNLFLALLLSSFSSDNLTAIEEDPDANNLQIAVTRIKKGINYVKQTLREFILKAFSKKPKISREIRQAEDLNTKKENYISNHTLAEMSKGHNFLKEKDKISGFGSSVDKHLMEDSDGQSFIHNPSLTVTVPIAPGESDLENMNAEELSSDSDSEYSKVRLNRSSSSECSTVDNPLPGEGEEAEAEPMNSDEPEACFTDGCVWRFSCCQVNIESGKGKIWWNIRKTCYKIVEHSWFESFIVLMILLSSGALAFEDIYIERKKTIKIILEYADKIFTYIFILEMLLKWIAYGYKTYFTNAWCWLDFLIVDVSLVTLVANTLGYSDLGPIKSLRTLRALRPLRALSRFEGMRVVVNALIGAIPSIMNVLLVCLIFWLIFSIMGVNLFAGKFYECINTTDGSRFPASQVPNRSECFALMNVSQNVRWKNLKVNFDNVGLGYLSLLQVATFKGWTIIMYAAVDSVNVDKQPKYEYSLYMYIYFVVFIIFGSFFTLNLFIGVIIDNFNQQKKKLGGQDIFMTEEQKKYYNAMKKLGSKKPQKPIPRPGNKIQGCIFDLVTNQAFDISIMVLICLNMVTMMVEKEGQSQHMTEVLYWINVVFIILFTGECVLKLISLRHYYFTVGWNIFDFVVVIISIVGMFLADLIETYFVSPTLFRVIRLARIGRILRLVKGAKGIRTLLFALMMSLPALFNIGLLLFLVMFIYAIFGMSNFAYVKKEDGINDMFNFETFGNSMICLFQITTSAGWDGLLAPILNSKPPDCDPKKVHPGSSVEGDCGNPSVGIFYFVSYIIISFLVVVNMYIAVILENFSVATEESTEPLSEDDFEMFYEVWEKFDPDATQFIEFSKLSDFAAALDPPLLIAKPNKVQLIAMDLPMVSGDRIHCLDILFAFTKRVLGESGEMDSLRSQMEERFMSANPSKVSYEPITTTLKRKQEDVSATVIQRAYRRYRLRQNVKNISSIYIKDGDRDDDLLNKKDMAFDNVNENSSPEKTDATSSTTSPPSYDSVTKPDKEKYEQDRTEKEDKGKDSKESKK

Target: hNav1.7 (Homo sapiens (Human), UniProt Q15858)
Test: Tritiated aryl sulfonamide binding to membranes from cells expressing hNav1.7 and the β1 subunit (competitive binding)
Conditions: membranes with hNav1.7 and β1 subunit; [3H]compound displacement, 18 h, room temperature; read-out: NaV1.7 395 Memb Binding (IC50)
Description: Tritiated Aryl Sulfonamide Binding to Membranes Isolated from Cells that Heterologously Express hNav1.7 and the β1 Subunit
Preparation of membranes containing recombinantly expressed sodium channels: Frozen recombinant cell pellets were thawed on ice and diluted to 4 times the cell pellet weight with ice cold 50 mM Tris HCl, pH 7.4 buffer. The cell suspensions were homogenized on ice using a motorized glass dounce homogeniser. Homogenates were further diluted 8.4 times with ice cold 50 mM Tris HCl, pH 7.4 buffer and then centrifuged at 200×g at 4° C. for 15 min. The supernatants were collected and centrifuged at 10000×g at 4° C. for 50 min. The pellets were then re-suspended in 100 mM NaCl, 20 mM Tris HCl, pH 7.4 buffer containing 1% v/v protease inhibitors (Calbiochem) and re-homogenized on ice. The homogenized membranes were then processed through a syringe equipped with a 26 gauge needle. Protein concentrations were determined by Bradford Assay and the membranes were stored at −80° C.
Radioligand Binding Studies: Saturation experiments. A representative compound of formula (I) was tritiated. […] Non-specific binding was determined in the presence of 1 μM unlabelled compound. […] [^3H]compound bound to filters was quantified by liquid scintillation counting.
Competitive binding experiments. […] Bound radioactivity was determined by liquid scintillation counting. […]

N-(azetidin-1-ylsulfonyl)-5-cyclopropyl-4-((4,4-difluorocyclohexyl)-methoxy)-2-fluorobenzamide [Example 213]
IC50: 1.1 µM
